# Assay outcomes from PubChem BioAssay.
# Rows were chosen to be rich in hits. Some 1.2% of all compounds tested hit in one or more screens of this group.
# Tb MetRS inh = Trypanosoma brucei MetRS inhibition; inhibition, % at 11.9 µM; AID 624268; 0.4% of 360,000 active; purified T. brucei MetRS, ATP depletion, Kinase-Glo luminescence;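 active = inhibition above a per-plate cutoff of the control wells' mean inhibition plus 3 SD, cut at about 5.5% in these data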;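 note: 0% = DMSO wells median and 100% = median of wells with control inhibitor compound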
#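 Test system – parasite MetRS enzyme · Reagent – substrates ATP, L-methionine and bulk Escherichia coli tRNA · Doses – 11.9 µM compound single dose, 0.9% DMSO · Times – 15 min enzyme-compound preincubation, 2 h reaction, 10 min detection, 25 °C · Signal – Kinase-Glo luminescence, ATP depletion format · Controls – DMSO-only wells as low control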
# Yeast UUG start = modulators of start codon recognition fidelity in yeast | S. cerevisiae UUG-firefly luciferase reporter, luminescence/redox ratio | activity score, % at 18.7 µM | 350,000 tested, 0.13% active;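 active = replicate mean at a twofold rise or more, about +100% in these data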;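 also: firefly luciferase made from a UUG start codon reports start codon fidelity; reporter light over untreated wells divided by growth signal over untreated wells; some hits fall short of that in this replicate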
# DSG3 Ab inh = inhibitors of pemphigus antibody binding to human desmoglein-3; DSG3-coupled beads, scFv-anti-DSG3-GFP binding, flow cytometry; hits give low values; 0.48% of 310,000 active; binding (percent of control), % at 10 µM; P32926;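 active = binding more than 3 SD below its plate's average and above zero; inconclusive = below that plate limit but binding exactly zero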;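 note: hits lower antibody fragment binding to DSG3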
# Rce1 inh = blocks yeast Ras-converting enzyme. yeast membranes, quenched prenylated peptide cleavage fluorescence. Q03530. calls only. 0.27% of 290,000 active;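 active = fall in fluorescence gain of 50% or more versus controls, with final raw signal at or below 3038400; inconclusive = same 50% fall but final raw signal above 3038400; inactive = fall in fluorescence gain under 50%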;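 note: plate controls were neutral control wells for no effect and wells lacking membranes for full effect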
# Arr AP2 block = inhibitors of human beta-arrestin and AP2 interaction | FITC-arrestin peptide / GST-AP2 beads, flow cytometry; AP2 beta2 appendage carries R879A mutation | inhibition, % at 10 µM | 0.31% of 340,000 active | AID 504490;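 active = inhibition above a set limit, near 3 SD of compounds lacking own fluorescence, cut at about 54% in these data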;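 note: plate controls were DMSO wells for no effect and 5 µM unlabelled arrestin peptide for full effect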
#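 Measured by: flow cytometry, FL1 (488/535 nm); Material: AP2 appendage R879A on GSH beads; Evaluation: percent response; Timing: pre-incubation 12 min, peptide binding 1 h, room temperature; Also added: 50 nM FITC-arrestin peptide; Medium: PBS with 0.05% Tween 20 and 0.1% BSA.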
# Arr AP2 CP1 = human beta-arrestin and AP2 interaction inhibition, cherry pick; shares compounds with Arr AP2 block; GST-AP2 beads, FITC arrestin peptide binding, flow cytometry; GST-fused beta2-adaptin appendage, R879A mutant; inhibition, % at 10 µM; 2% of 1,300 active;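 active = inhibition above a set limit, roughly 3 SD of non-fluorescent compound noise, cut at about 38% in these data; inactive = inhibition at or below that limit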;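 note: loss of bead fluorescence from 50 nM FITC arrestin peptide bound to appendage; 0% = negative control wells and 100% = excess unlabelled arrestin peptide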
# GST-FITC bead = disrupts GST binding to glutathione beads, arrestin-AP2 artifact; shares compounds with Arr AP2 block; GST-fluorescein binding to GSH beads, fluorescence, counter-screen; inhibition, % at 10 µM; 2% of 1,300 active; AID 588338;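 active = inhibition above 50%, about 3 SD of the inhibition seen with non-fluorescent compounds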;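 note: fluorescein maleimide labelled GST captured on 4 micron glutathione beads; higher means more loss of bead fluorescence from quenching or blocked binding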
# Active calls of the source: *; i = inactive; ? = inconclusive; · = not tested or not shown.
SMILES,Tb MetRS inh,Yeast UUG start,DSG3 Ab inh,Rce1 inh,Arr AP2 block,Arr AP2 CP1,GST-FITC bead
Clc1ccc(-c2csc(N/N=C/c3ccc4c(c3)OCO4)n2)cc1,-0.3,·,83.5,·,79.1*,-2.5,1.2
CO[C@H]1CN(C)C(=O)c2cc(NS(C)(=O)=O)ccc2OC[C@@H](C)N(C(=O)C2CCC2)C[C@@H]1C,·,-11.2,·,·,·,·,·
CCC(=O)Nc1ccc(-c2ccc(N3CCC(C)CC3)nn2)cc1,-0.4,-21.8,106.5,i,-7.0,·,·
CCC(=O)Nc1ccc(-c2ccc(N3CCN(C)CC3)nn2)cc1,0.2,-11.0,99.4,i,54.6*,-2.7,-4.0
CN1CCN(S(=O)(=O)c2cccc(C(=O)NC3CCCC3)c2)CC1,-0.2,6.8,97.1,i,60.1*,2.9,3.3
Cc1ccc(S(=O)(=O)N2CCCC(C(=O)NC3CCCC3)C2)cc1Cl (stereo not given),-0.6,1.6,106.9,i,56.7*,-10.1,-0.3
C[C@H](CO)N1C[C@H](C)[C@H](CN(C)Cc2ccc(C(=O)O)cc2)Oc2c(NC(=O)C3CC3)cccc2C1=O,·,-29.0,·,·,·,·,·
C[C@@H]1CN([C@@H](C)CO)C(=O)c2cccc(NC(=O)Nc3ccc(F)cc3)c2O[C@@H]1CN(C)C(=O)NC1CCCCC1,·,0.6,·,·,·,·,·
C[C@@H]1CN([C@@H](C)CO)C(=O)Cc2cc(NC(=O)Cc3cn(C)c4ccccc34)ccc2O[C@H]1CN(C)S(=O)(=O)c1ccccc1,·,-15.8,·,·,·,·,·
Cc1ccc(S(=O)(=O)Nc2ccc3c(c2)CC(=O)N([C@H](C)CO)C[C@H](C)[C@@H](CN(C)C)O3)cc1,·,19.3,·,·,·,·,·
COc1ccc(CN(C)C[C@@H]2Oc3ccc(NC(=O)Nc4ccc(C(F)(F)F)cc4)cc3C(=O)N([C@@H](C)CO)C[C@H]2C)cc1,·,14.7,·,·,·,·,·
O=[N+]([O-])c1ccc(/C=C/c2ccc3cccc(O)c3n2)cc1,-0.6,-13.1,93.5,i,56.6*,-7.8,-5.4
O=[N+]([O-])c1ccc(/C=C/c2ccc3ccccc3n2)cc1,-0.4,-30.4,96.5,·,-12.2,·,·
O=C(C[C@@H]1C=C[C@@H](NC(=O)C2CCOCC2)[C@H](CO)O1)NCC1CCCCC1,·,-22.4,·,·,·,·,·
C[C@H]1CN([C@@H](C)CO)C(=O)c2ccccc2-c2ccccc2CO[C@@H]1CN(C)S(=O)(=O)c1ccc(C#N)cc1,·,-7.3,·,·,·,·,·

# Looked up above:
# `C[C@@H]1CN([C@@H](C)CO)C(=O)Cc2cc(NC(=O)Cc3cn(C)c4ccccc34)ccc2O[C@H]1CN(C)S(=O)(=O)c1ccccc1` | Yeast UUG start = -15.8
# `C[C@H](CO)N1C[C@H](C)[C@H](CN(C)Cc2ccc(C(=O)O)cc2)Oc2c(NC(=O)C3CC3)cccc2C1=O` | Yeast UUG start = -29.0
# `C[C@@H]1CN([C@@H](C)CO)C(=O)c2cccc(NC(=O)Nc3ccc(F)cc3)c2O[C@@H]1CN(C)C(=O)NC1CCCCC1` | Yeast UUG start = 0.6
# `Cc1ccc(S(=O)(=O)Nc2ccc3c(c2)CC(=O)N([C@H](C)CO)C[C@H](C)[C@@H](CN(C)C)O3)cc1` | Yeast UUG start = 19.3
# `Cc1ccc(S(=O)(=O)N2CCCC(C(=O)NC3CCCC3)C2)cc1Cl` (stereo not given) | Arr AP2 block = 56.7*

# (continued)
SMILES,Tb MetRS inh,Yeast UUG start,DSG3 Ab inh,Rce1 inh,Arr AP2 block,Arr AP2 CP1,GST-FITC bead
COc1ccc(N2C(=O)C(CC(=O)Nc3ccc(F)cc3)N(CCc3ccc(OC)c(OC)c3)C2=O)cc1 (stereo not given),1.4,5.5,85.0,i,7.6,·,·
CCOc1ccc(NC(=O)CC2C(=O)N(c3ccc(OC)cc3)C(=O)N2CCc2ccc(OC)c(OC)c2)cc1 (stereo not given),0.4,4.6,100.0,·,55.8*,0.2,-0.7
O=C(C[C@@H]1CC[C@H](NC(=O)Nc2ccc(C(F)(F)F)cc2)[C@H](CO)O1)NCc1ccccn1,·,-9.4,·,·,·,·,·
COc1cccc(-c2ccc3c(c2)[C@H]2[C@H](CCN2C(=O)C2CCC2)[C@@H](CO)N3)c1,·,-3.9,·,·,·,·,·
COc1cccc(-c2nnc(SC(C(=O)c3c[nH]c4ccccc34)c3ccccc3)n2C)c1 (stereo not given),0.8,·,105.5,i,98.0*,10.9,6.4
COc1ccc(C)cc1N(C(=O)c1snc(C(N)=O)c1N)C(C(=O)NC1CCCCC1)c1ccc(C)o1 (stereo not given),0.1,-1.6,107.8,i,72.0*,2.3,-1.5
COc1ccc(OC)c(C(C(=O)NC2CCCCC2)N(C(=O)c2snc(C(N)=O)c2N)c2ccccc2OC)c1 (stereo not given),-1.1,-9.0,116.6,i,-3.2,·,·
COc1ccc2nc(-c3ccccc3)cc(C(=O)OCC(=O)N3CC(C)OC(C)C3)c2c1 (stereo not given),0.1,-3.6,·,·,54.1*,3.0,-1.8
COC(=O)c1ccc(CN2CCC(Oc3cccc(C(=O)N4CCOCC4)c3)CC2)cc1,-0.7,0.0,110.1,i,70.1*,2.6,-4.5
COCCNC(=O)c1cccc(OC2CCN(Cc3ccc(C(=O)OC)cc3)CC2)c1,-0.7,-2.1,109.2,i,1.0,·,·
O=C(Nc1ccc2c(c1)OCO2)N[C@@H]1CC[C@H](CCNC(=O)C2CCC2)O[C@@H]1CO,·,-7.6,·,·,·,·,·
Cc1noc(C)c1S(=O)(=O)Nc1ccc2c(c1)C(=O)N([C@H](C)CO)C[C@H](C)[C@@H](CN(C)Cc1ccc(C(=O)O)cc1)O2,-0.4,-0.1,94.4,·,60.1*,6.8,10.4
Cc1noc(C)c1S(=O)(=O)Nc1ccc2c(c1)C(=O)N([C@@H](C)CO)C[C@H](C)[C@H](CN(C)Cc1ccc(C(=O)O)cc1)O2,·,-15.4,·,·,·,·,·
CN1CCN(C(=O)C[C@@H]2C=C[C@@H](NC(=O)c3ccc4c(c3)OCO4)[C@H](CO)O2)CC1,·,-30.9,·,·,·,·,·
Cc1ccccc1CC(=O)Nc1ccc2c(c1)CCC2,-0.1,-8.3,99.7,i,59.5*,-1.7,-1.3

# Reformatted: results already given.
COc1ccc2nc(-c3ccccc3)cc(C(=O)OCC(=O)N3CC(C)OC(C)C3)c2c1 (stereo not given)
  Tb MetRS inh: 0.1
  Yeast UUG start: -3.6
  DSG3 Ab inh: ·
  Rce1 inh: ·
  Arr AP2 block: 54.1*
  Arr AP2 CP1: 3.0
  GST-FITC bead: -1.8

COC(=O)c1ccc(CN2CCC(Oc3cccc(C(=O)N4CCOCC4)c3)CC2)cc1
  Tb MetRS inh: -0.7
  Yeast UUG start: 0.0
  DSG3 Ab inh: 110.1
  Rce1 inh: i
  Arr AP2 block: 70.1*
  Arr AP2 CP1: 2.6
  GST-FITC bead: -4.5

# Continuation.
SMILES,Tb MetRS inh,Yeast UUG start,DSG3 Ab inh,Rce1 inh,Arr AP2 block,Arr AP2 CP1,GST-FITC bead
C[C@H](CO)N1C[C@H](C)[C@H](CN(C)S(=O)(=O)c2ccccc2)Oc2ccc(NC(=O)CCC(F)(F)F)cc2CC1=O,·,-0.3,·,·,·,·,·
Cc1noc(C)c1S(=O)(=O)Nc1ccc2c(c1)CC(=O)N([C@H](C)CO)C[C@H](C)[C@@H](CN(C)C)O2,·,16.1,·,·,·,·,·
O=C(NCc1ccco1)C1CC(=O)N(c2ccc(Cl)cc2)C1 (stereo not given),-1.1,·,88.7,i,57.5*,11.2,-4.9
Cc1noc(C)c1S(=O)(=O)N(C)C[C@@H]1OCCCC[C@H](C)Oc2ccc(NC(=O)C3CCCCC3)cc2C(=O)N([C@H](C)CO)C[C@H]1C,·,3.5,·,·,·,·,·
Cc1nc2ccc(NC(=O)c3ccc4ccccc4n3)cc2s1,-0.8,·,·,i,65.4*,-7.1,-1.5
O=C(c1ccc2c(c1)OCO2)N1C[C@@H]2[C@H](c3ccccc31)[C@H](CO)N2C(=O)CC1CC1,·,-0.7,·,·,·,·,·
COC(=O)CSc1nc(N)nc(C)c1Br,-0.7,-10.9,?,·,56.0*,-13.0,-3.0
C[C@H]1CN([C@@H](C)CO)C(=O)c2cc(C3=CCCC3)cnc2O[C@H]1CN(C)C(=O)C1CCC1,·,-1.3,·,·,·,·,·
CCSc1nnc(-c2sc3nnc(-c4ccccc4)c(-c4ccccc4)c3c2N)o1,-0.2,-15.5,169.8,i,72.6*,19.5,13.1
Cc1ccc(-n2c(SCC(=O)N/N=C/c3ccccc3C(=O)O)nnc2-c2ccccc2)cc1,0.4,-7.6,102.0,i,-3.3,·,·
Cc1ccc(-c2nnc(SCC(=O)N/N=C/c3ccccc3C(=O)O)n2C2CCCCC2)cc1,-0.1,-13.6,98.7,i,67.9*,4.0,-5.1
